# Ab-95 light chain CDR variants: yeast mating affinities

Binding partner: SARS-CoV-2 spike HR2 peptide, sequence PDVDLGDISGINAS.

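The parent was found by panning a naive human phage display library on the peptide. The library (AAYL52) carries one to three amino acid substitutions per variant, with no insertions or deletions. In AlphaSeq, yeast of one mating type display the scFv and yeast of the other type display the target. The frequency of each diploid, read from paired DNA barcodes, reflects how well the two displayed proteins bind. Scores were corrected for input abundance and mapped to Kd with protein pairs of known affinity run in the same pool. Mating was done three times.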

Ab-95 is the parent antibody, in scFv form: VH, then a 15-residue (Gly4Ser)3 linker, then VL. The heavy chain is unchanged in all variants.
VH: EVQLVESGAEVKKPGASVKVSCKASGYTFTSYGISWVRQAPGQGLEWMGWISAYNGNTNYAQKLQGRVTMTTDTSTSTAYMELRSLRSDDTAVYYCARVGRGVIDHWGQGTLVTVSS
VL: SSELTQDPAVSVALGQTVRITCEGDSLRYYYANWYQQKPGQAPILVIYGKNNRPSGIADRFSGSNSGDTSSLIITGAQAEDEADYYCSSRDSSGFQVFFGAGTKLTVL

Substitutions are numbered in sequence along the VL above, starting at 1 (not Kabat).
Every variant below is changed at S93 of the VL (sequential numbering).
Kd is apparent (estimated from mating counts) and averaged on the log scale over replicates with a signal. Smaller is tighter.
"nd" marks a missing value. The strain was present, yet no cells mated with the target were sequenced in any replicate, which points to weak or no binding.
As a blank, each scFv also met three strains without target: over library AAYL52, 28% of these pairings were detected, typically at 8.2 µM and seldom below 800 nM. The control count says in how many pairings with the empty strains this scFv gave a signal.

Variant S93A/G94Q/F98C gave 300 nM (2 of 3 replicates; controls 2 of 9).
Variant Y31F/R90H/S93N gave 190 nM (3 of 3 replicates; controls 3 of 9).
Variant A32D/S93Q gave 3.9 µM (3 of 3 replicates; controls 1 of 9).
Variant S93D/G94W/V97D gave nd (0 of 3 replicates; controls 1 of 9).
Variant Y29E/P54G/S93R gave 1.5 µM (3 of 3 replicates; controls 3 of 9).
Variant S55K/S89K/S93Q gave 12 µM (2 of 3 replicates; controls 4 of 9).
Variant N33T/S93W/F95T gave 16 µM (1 of 3 replicates; controls 1 of 9).
Variant Y30I/Y31V/S93W gave 4.5 µM (2 of 3 replicates; controls 4 of 9).
Variant R28K/S93P/F98Y gave 59 µM (2 of 3 replicates; controls 3 of 9).
Variant R53P/S93M gave 53 µM (2 of 3 replicates; controls 2 of 9).
Variant D25P/L27D/S93V gave 100 nM (3 of 3 replicates; controls 2 of 9).
Variant N33H/N51T/S93Y gave 57 µM (2 of 3 replicates; controls 5 of 9).
Variant A32K/N33H/S93L gave 1.5 µM (2 of 3 replicates; controls 2 of 9).
Variant S26R/N33R/S93P gave 3.5 µM (3 of 3 replicates; controls 3 of 9).
Variant S26E/N51A/S93Q gave 19 µM (1 of 3 replicates; controls 1 of 9).
Variant N33Y/P54Q/S93C gave nd (0 of 3 replicates; controls 1 of 9).
Variant Y30D/S93Y gave 37 nM (3 of 3 replicates; controls 0 of 9).
Variant G24M/S92D/S93K gave 70 µM (2 of 3 replicates; controls 4 of 9).
Variant E23N/R90A/S93C gave 24 µM (2 of 3 replicates; controls 1 of 9).
Variant L27V/S92C/S93I gave 1.3 µM (3 of 3 replicates; controls 2 of 9).
Variant P54A/S55T/S93R gave 240 nM (3 of 3 replicates; controls 1 of 9).
Variant Y29Q/S89A/S93N gave 430 nM (3 of 3 replicates; controls 2 of 9).
Variant R28P/R53W/S93E gave 13 µM (2 of 3 replicates; controls 3 of 9).
Variant G24Q/R90N/S93P gave 2.8 µM (1 of 3 replicates; controls 3 of 9).
Variant S93A/F95V/F98V gave 350 nM (3 of 3 replicates; controls 1 of 9).
Variant G24Q/K50Q/S93E gave 20 µM (3 of 3 replicates; controls 3 of 9).
Variant N33A/S55E/S93E gave 380 µM (1 of 3 replicates; controls 2 of 9).
Variant S26P/S93Y/Q96T gave 380 nM (3 of 3 replicates; controls 3 of 9).
Variant G24D/S93W gave 11 µM (1 of 3 replicates; controls 2 of 9).
Variant S93W/F95P gave 18 µM (2 of 3 replicates; controls 5 of 9).
Variant N52G/P54G/S93I gave nd (0 of 3 replicates; controls 0 of 9).
Variant S93P/V97R gave 370 nM (3 of 3 replicates; controls 3 of 9).
Variant S26Q/S93T/G94A gave 7.0 µM (2 of 3 replicates; controls 1 of 9).
Variant Y31N/K50R/S93R gave 7.9 nM (3 of 3 replicates; controls 4 of 9).
Variant G24C/L27T/S93P gave 15 µM (2 of 3 replicates; controls 3 of 9).
Variant S55M/S93E/V97L gave 3.1 µM (3 of 3 replicates; controls 2 of 9).
Variant E23W/S93H/V97L gave 5.5 µM (2 of 3 replicates; controls 1 of 9).

Top 5 of the variants detected in all replicates, tightest first:

The variant Y31N/K50R/S93R showed 7.9 nM (3 of 3 replicates; controls 4 of 9).
The variant Y30D/S93Y showed 37 nM (3 of 3 replicates; controls 0 of 9).
The variant D25P/L27D/S93V showed 100 nM (3 of 3 replicates; controls 2 of 9).
The variant Y31F/R90H/S93N showed 190 nM (3 of 3 replicates; controls 3 of 9).
The variant P54A/S55T/S93R showed 240 nM (3 of 3 replicates; controls 1 of 9).

Data: MIT Lincoln Laboratory AlphaSeq set, Engelhart et al. 2022, doi:10.1038/s41597-022-01779-4, as distributed in FLAb.